Our source for the Ki values is BindingDB's records for doi:10.1124/jpet.106.103382 (Wyeth Research, 2006).

The chains behind the UniProt entries cited, without tags or fusion partners.
UniProt P23975, whole entry: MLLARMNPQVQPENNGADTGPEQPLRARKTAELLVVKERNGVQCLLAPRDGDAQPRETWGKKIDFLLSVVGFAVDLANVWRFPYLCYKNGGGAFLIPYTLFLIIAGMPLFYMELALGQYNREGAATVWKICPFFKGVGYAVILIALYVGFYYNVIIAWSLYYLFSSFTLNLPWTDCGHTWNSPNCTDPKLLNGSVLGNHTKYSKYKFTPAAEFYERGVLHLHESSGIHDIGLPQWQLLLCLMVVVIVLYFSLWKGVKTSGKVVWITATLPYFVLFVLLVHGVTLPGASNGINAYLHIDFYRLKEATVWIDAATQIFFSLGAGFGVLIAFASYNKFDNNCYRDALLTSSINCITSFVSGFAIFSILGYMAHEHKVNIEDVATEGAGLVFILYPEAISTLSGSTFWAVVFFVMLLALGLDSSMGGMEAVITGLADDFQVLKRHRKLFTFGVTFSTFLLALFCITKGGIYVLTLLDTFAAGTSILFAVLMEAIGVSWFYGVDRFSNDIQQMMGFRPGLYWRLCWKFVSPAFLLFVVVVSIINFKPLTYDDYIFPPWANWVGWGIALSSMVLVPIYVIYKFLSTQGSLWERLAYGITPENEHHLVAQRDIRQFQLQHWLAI
UniProt Q01959, whole entry: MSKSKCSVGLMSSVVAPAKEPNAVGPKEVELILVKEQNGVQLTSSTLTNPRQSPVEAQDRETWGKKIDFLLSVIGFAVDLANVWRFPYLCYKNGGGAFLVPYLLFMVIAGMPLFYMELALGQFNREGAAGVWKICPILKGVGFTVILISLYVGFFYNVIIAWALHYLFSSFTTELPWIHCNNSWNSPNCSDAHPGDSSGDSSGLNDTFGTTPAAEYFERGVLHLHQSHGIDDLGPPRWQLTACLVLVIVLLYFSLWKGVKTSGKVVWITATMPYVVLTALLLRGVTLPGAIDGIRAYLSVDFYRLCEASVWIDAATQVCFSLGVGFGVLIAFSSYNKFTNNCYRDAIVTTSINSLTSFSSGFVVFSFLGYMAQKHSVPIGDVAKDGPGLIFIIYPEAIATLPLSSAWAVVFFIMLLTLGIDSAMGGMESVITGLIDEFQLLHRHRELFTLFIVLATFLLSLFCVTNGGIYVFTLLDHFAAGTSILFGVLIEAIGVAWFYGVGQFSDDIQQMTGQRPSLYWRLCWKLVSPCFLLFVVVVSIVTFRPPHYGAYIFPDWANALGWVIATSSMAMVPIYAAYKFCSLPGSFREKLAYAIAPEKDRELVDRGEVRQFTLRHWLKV
UniProt P31645, whole entry: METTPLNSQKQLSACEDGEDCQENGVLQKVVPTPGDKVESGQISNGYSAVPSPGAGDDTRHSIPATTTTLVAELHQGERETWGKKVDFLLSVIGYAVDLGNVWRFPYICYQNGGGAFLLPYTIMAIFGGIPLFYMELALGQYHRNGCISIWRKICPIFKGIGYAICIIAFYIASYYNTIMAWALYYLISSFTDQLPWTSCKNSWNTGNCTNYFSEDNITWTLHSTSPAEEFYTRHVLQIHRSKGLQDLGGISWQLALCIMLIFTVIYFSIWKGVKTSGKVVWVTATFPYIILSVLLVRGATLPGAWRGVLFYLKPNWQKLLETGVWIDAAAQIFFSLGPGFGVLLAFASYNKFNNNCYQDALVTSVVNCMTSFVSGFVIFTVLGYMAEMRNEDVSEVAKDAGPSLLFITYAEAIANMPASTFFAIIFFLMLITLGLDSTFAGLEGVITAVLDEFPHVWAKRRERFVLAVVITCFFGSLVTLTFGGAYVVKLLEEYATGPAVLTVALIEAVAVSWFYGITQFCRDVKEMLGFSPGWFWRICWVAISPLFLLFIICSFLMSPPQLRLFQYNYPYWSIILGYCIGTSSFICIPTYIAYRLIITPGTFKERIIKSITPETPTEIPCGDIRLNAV

Values joined by “and” are separate entries in the source; they are usually repeats but may differ in a detail not shown here. Equal values may be shown once.

The target of assay [1] is Sodium-dependent noradrenaline transporter (Homo sapiens, UniProt P23975).
Assay [2] addresses Sodium-dependent dopamine transporter (Homo sapiens, UniProt Q01959).
The target in assay [3] is Sodium-dependent serotonin transporter (Homo sapiens, UniProt P31645).

One may read the Ki as a measure of affinity in units of concentration, obtained from inhibition or displacement. Turning to `CN(C)CC(c1ccc(O)cc1)C1(O)CCCCC1` (stereo not drawn) [CAS_386750-22-7], the Ki in assay [1] is 558 nM and 3390 nM and 531 nM; in assay [2], greater than 10000 nM; in assay [3] it was 47.3 nM.
